# Assay results as given in US20220283175A1, “METALLOENZYMES FOR BIOMOLECULAR RECOGNITION OF N-TERMINAL MODIFIED PEPTIDES” (Encodia, Inc., priority 2020, published 2022).
# Biological target: human carbonic anhydrase II (hCAII) (Homo sapiens, UniProt P00918)
# Test: hCAII functional assay (hydrolysis of p-nitrophenylacetate, pNP release)
# Assay type: biochemical
# Procedure: A functional assay for hCAII enzyme was set up. Carbonic anhydrase catalyzes the hydrolysis of 4-nitrophenyl acetate (4-NPA) to nitrophenol, which can be monitored by absorbance at 400 nm. The enzymatic carbonic anhydrase assay generally includes 0.2-1.0 μM enzyme and 10-500 μM 4-NPA in 20-200 μL in assay buffer. […] Metal chelating agents (EDTA or EGTA), salt (NaCl, sulfate), detergent (Tween or Triton), and organic additives (acetonitrile, DMSO) may be employed to facilitate enzyme stability and reagent solubility. For the assay, 1 μM human carbonic anhydrase II, 50 mM MOPS (pH 7.6), 33 mM disodium sulfate, and 1 mM EDTA. To generate NTM-modified peptides, azide-derivatized peptides (via azide-PEG-amine and carbodiimide coupling to C-terminus of peptide) were conjugated to DBCO-coupled beads. […] To evaluate P1 dependence of the binding reaction, multiple P1 residues has been tested.
smiles,measurement,setting,value
"C[C@H](NC(=O)[C@H](C)NC(=O)[C@@H](N)Cc1ccccc1)C(=O)N[C@@H](C)C(=O)N[C@@H](CCC(=O)O)C(=O)O [FAAAE, reference compound]",IC50,"1 μM hCAII, 500 μM pNP-OAc, 10 min at 37° C.",152 µM
same,binding/inhibition,native (unmodified) peptide,No significant binding/inhibition
